# Test results from PubChem BioAssay AID2235 (The Scripps Research Institute Molecular Screening Center, 2010).
# Protein sequences, listed by entry. Tags and fused reporters are not part of them.
# UniProt P62136, whole entry: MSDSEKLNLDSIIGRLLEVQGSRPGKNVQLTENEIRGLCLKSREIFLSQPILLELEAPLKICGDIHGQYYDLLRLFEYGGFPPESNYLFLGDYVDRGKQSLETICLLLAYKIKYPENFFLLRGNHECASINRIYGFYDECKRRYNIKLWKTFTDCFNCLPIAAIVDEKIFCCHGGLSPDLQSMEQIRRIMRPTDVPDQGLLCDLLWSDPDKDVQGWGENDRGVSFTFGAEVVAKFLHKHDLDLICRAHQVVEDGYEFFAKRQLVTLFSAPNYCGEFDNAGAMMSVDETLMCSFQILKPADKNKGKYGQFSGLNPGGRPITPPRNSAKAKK
# Only a part is listed here, and it is no random draw. Activity calls are given as the source filed them.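 Rule for the calls: active = inhibition above the mean inhibition of all tested compounds plus 3 SD, computed separately for each screening campaign (cut at about 15% in these data); inactive = the rest.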
# Target: Serine/threonine-protein phosphatase PP1-alpha catalytic subunit (Homo sapiens) (UniProt P62136)
# Assay: PP1-alpha phosphatase inhibitors, primary screen, counter-screen for PP5 inhibitor project, biochemical, fluorescence, OMFP substrate, single point (AID 2235)
# Settings: purified PP1alpha, at 6.7 µM, hits give high values
row,SMILES,inhibition
1,CCOC(=O)c1ccc(NP(C)(=O)Oc2ccc(Cl)cc2)cc1 (configuration not stated),inactive: 2.31%
2,CP(=O)(OC12CC3CC(CC(C3)C1)C2)OC12CC3CC(CC(C3)C1)C2,inactive: 3.66%
3,Nc1ccc2c(ccc3cccnc32)n1.O=[N+]([O-])c1cc([N+](=O)[O-])c(O)c([N+](=O)[O-])c1,inactive: -4.07%
4,CN(C)C(=O)c1c([N+](=O)[O-])cc([N+](=O)[O-])cc1[N+](=O)[O-],inactive: 4.57%
5,CC(C)(C)c1ccc(OP(C)(=O)O)cc1,inactive: -1.13%
6,COc1ccccc1OP(C)(=O)Nc1ccccc1Br (configuration not stated),inactive: 1.42%
7,CP(=O)(Nc1ccc(Cl)cc1)Oc1ccc(F)cc1 (configuration not stated),inactive: 1.65%
8,O=C(OCCCN1CCCC1)C(O)(c1ccccc1)C1CCCCC1 (configuration not stated),inactive: -4.55%
9,COc1ccccc1OP(C)(=O)Nc1c(C)n(C)n(-c2ccccc2)c1=O (configuration not stated),inactive: 2.33%
10,CCc1ccc(OP(C)(=O)Nc2cccnc2)cc1 (configuration not stated),inactive: 1.87%
11,CP(=O)(Oc1ccccc1)N1CCOC1=O (configuration not stated),inactive: 3.13%
12,COc1ccc(OP(C)(=O)Nc2ccc(Br)cc2)cc1 (configuration not stated),inactive: 0.19%
13,CCN(CC)CC(O)COC(=O)C(O)(c1ccccc1)C1CCCCC1 (configuration not stated),inactive: -2.59%
14,COc1ccccc1OP(C)(=O)Nc1ccc(C)cc1C (configuration not stated),inactive: -1.74%
15,CP(=O)(Nc1ccccn1)Oc1ccccc1 (configuration not stated),inactive: 0.41%
16,CCc1ccc(OP(C)(=O)O)cc1,inactive: -5.21%
17,O=[N+]([O-])c1cc([N+](=O)[O-])c(Nc2ccccn2)c([N+](=O)[O-])c1,inactive: 2.33%
18,Cc1c(NP(C)(=O)Oc2ccc(C(C)C)cc2)c(=O)n(-c2ccccc2)n1C (configuration not stated),inactive: -0.27%
19,COc1ccc(OP(C)(=O)Nc2ccccn2)cc1 (configuration not stated),inactive: 1.28%
20,CN(C)CCOC(=O)C(O)(c1ccccc1)C1CCCC1 (configuration not stated),inactive: -0.38%
21,COc1ccccc1OP(C)(=O)Nc1ccc(Br)cc1 (configuration not stated),inactive: -1.96%
22,CP(=O)(OCCOc1ccccc1)OCCOc1ccccc1,inactive: -2.92%
23,CP(=O)(Nc1ccc(Cl)cc1Cl)Oc1ccccc1 (configuration not stated),inactive: 2.64%
24,Cc1nc2ccc3ccccc3c2o1.O=[N+]([O-])c1cc([N+](=O)[O-])c(O)c([N+](=O)[O-])c1,inactive: -3.06%
25,COc1ccccc1OP(C)(=O)Nc1ccc(C)c(C)c1 (configuration not stated),inactive: 1.56%
26,COc1ccc(OP(C)(=O)Nc2ccccc2Br)cc1 (configuration not stated),inactive: -1.05%
27,Cc1cc(C)cc(OP(C)(=O)Nc2cccc(C(F)(F)F)c2)c1 (configuration not stated),inactive: -0.28%
